Sequences of proteins named here, by UniProt entry; tags and fusion partners are left off.
UniProt P30543, whole entry: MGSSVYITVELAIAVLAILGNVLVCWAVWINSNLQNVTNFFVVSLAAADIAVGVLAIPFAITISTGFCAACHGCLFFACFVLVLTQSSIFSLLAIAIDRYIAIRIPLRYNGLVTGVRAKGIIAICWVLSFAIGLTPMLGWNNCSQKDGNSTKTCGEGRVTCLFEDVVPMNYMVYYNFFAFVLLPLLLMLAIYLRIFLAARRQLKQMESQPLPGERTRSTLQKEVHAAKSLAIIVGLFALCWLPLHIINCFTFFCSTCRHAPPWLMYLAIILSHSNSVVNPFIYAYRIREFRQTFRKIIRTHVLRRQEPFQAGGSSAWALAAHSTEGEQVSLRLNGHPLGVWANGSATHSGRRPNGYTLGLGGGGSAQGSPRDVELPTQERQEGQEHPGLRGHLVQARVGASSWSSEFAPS

In ChEMBL document CHEMBL1130527, “Adenosine A2A antagonists with potent anti-cataleptic activity” (Bioorg Med Chem Lett, 1997):

Experiments:
Adenosine receptor A2a [1] = molecular target: T1, Adenosine receptor A2a (Rattus norvegicus, UniProt P30543)
Adenosine receptor A2a [2] = molecular target: T1, Adenosine receptor A2a; remark: listed apart in the source

- Ki (Adenosine receptor A2a [1]): 2.4 nM
- Ki (Adenosine receptor A2a [2]): 6.2 nM
Structure (SMILES): CCn1c(=O)c2c(nc(/C=C/c3cc(OC)c(OC)c(OC)c3)n2C)n(CC)c1=O
